The assay concerns the target T1, OAT-4 (Homo sapiens, UniProt Q9NSA0).
T1 construct: expressed in transfected cells; host or cells: MDCK (canine kidney) cells; the empty-vector control is pcDNA3.1
T1 sequence (Q9NSA0 1-550): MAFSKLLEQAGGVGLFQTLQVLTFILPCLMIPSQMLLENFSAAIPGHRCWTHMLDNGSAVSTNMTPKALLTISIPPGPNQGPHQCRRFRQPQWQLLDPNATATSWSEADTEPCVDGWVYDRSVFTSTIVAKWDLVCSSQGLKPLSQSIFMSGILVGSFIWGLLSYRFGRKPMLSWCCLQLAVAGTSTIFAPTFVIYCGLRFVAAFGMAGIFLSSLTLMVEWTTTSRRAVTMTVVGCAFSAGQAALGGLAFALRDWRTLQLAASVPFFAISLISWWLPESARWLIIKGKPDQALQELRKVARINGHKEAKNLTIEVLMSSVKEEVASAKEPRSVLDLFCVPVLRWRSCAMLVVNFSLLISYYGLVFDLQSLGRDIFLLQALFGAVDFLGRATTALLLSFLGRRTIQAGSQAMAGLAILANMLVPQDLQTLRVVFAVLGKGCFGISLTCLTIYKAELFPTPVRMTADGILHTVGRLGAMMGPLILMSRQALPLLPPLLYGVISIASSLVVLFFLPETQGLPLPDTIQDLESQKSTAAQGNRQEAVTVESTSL
Kind of assay: Inhibition of substrate uptake in MDCK cells overexpressing OAT-4. The settings on record: for IC50: MDCK-OAT4 cells. It is filed as cell-based.

Each structure is given as a SMILES string. Like-named read-outs stand apart in the source and are kept apart here.

In the case of `O=C(O)CSc1nnc(Br)n1-c1ccc(C2CC2)c2ccccc12` (racemic) [(±)-Lesinurad, lesinurad, reference compound], the IC50 (in general, the concentration that gives 50% inhibition) (substrate 3H-estrone ammonium sulfate, read-out: IC50 of the inhibition on OAT-4 transporting 3H-ES (3H-estrone ammonium sulfate)) amounted to 12.7 µM. Besides, where the note is “substrate 14C-uric acid, read-out: IC50 of the inhibition on OAT-4 transporting 14C-UA (14C-uric acid)”, the IC50 was 2.17 µM. For the same compound, where the note is “comparison of IC50 values”, the “Inhibition on OAT-4 mediated estrone sulfate ammonium salt transport compared with URAT-1 mediated uric acid transport” value came out at 2 times and the “Inhibition on OAT-4 mediated uric acid transport compared with URAT-1 mediated uric acid transport” value is on record as 11 times.

The record behind these values is US11352331B2, “Crystal and salt of 4-(naphthalen-1-yl)-4H-1,2,4-triazole compound and preparation method therefor” (MEDSHINE DISCOVERY INC., priority 2017, dated 2022).
